Results published in patent US12187662B2, “FOXM1 inhibitor compositions and methods of using the same” (The Board of Trustees of the University of Illinois, priority 2018, dated 2025).
Where “and” joins values, the source holds several entries; their conditions need not be identical. Identical values can stand only once. Like-named read-outs stand apart in the source and are kept apart here.

Chains of the proteins cited; added tags and fusions are not shown.
UniProt P03372, whole entry, species assumed: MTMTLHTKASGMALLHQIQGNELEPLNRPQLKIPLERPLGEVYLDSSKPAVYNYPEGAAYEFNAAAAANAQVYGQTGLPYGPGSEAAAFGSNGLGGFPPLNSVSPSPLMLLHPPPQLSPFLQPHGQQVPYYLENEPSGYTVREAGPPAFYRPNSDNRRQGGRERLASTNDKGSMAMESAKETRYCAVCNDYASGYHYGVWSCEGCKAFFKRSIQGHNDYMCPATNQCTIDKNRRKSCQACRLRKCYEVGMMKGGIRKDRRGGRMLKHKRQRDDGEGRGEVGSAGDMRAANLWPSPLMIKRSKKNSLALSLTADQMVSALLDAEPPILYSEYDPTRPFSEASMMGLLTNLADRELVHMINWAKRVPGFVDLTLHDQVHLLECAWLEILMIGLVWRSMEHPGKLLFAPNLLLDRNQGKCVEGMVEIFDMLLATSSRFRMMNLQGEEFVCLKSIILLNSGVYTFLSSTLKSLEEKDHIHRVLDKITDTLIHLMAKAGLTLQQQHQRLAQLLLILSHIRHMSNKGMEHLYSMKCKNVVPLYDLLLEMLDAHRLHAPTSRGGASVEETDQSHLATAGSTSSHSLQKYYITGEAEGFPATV

Legend:
[1] = Pharmacokinetic studies in mice after single s.c. or oral dose; details: for PK p.o. AUC0-48: 60 mg/kg p.o.
[2] = biological target: estrogen receptor α (ERα) (Homo sapiens, UniProt P03372); experiment: Relative binding affinity (RBA) for estrogen receptor α
[3] = relative binding affinity, estradiol = 100

Molecule | RBA ERα [2, 3] | other results
c1cc(C(=C2C3CC4CC(C3)CC2C4)c2ccc(OCCCCCCN3CCCC3)cc2)ccc1OCCCCCCN1CCCC1 [NB-65, 1,1′-((((((5r,7r)-adamantan-2-ylidene)methylene)bis(4,1-phenylene))bis(oxy))bis(hexane-6,1-diyl))dipyrrolidine] | 0.05 | PK p.o. AUC0-48 [1]: too low to measure
C[N+]1(CCCCCCOc2ccc(C(c3ccc(Cl)cc3)=C3C4C[C@H]5C[C@@H](C4)C[C@H]3C5)cc2)CCCC1 [NB-63] | 0.15 | –
6-(4-((Z)-((5S,7S)-adamantan-2-ylidene)(4-chlorophenyl)methyl)phenoxy)-N,N-diethylhexan-1-amine [NB-54] | – | RBA ERα [2]: 1.2 and 1.17
CN1CCN(CCCCCCOc2ccc(C(=C3C4CC5CC(C4)CC3C5)c3ccc(OCCCCCCN4CCN(C)CC4)cc3)cc2)CC1 [NB-66, 4,4′-((((((5r,7r)-adamantan-2-ylidene)methylene)bis(4,1-phenylene))bis(oxy))bis(hexane-6,1-diyl))bis(1-methylpiperazine)] | 0.05 | –
1-(6-(4-((Z)-((5S,7S)-adamantan-2-ylidene)(4-chlorophenyl)methyl)phenoxy)hexyl)-4-methylpiperazine [NB-64] | 0.12 | –
CCN(CC)CCCCCCOc1ccc(C(=C2C3CC4CC(C3)CC2C4)c2ccc(O)cc2)cc1 [NB-41, 4-((E)-((5R,7R)-adamantan-2-ylidene)(4-((6-(diethylamino)hexyl)oxy)phenyl)methyl)phenol] | 82 | –
C[n+]1ccn(CCCCCCOc2ccc(C(=C3C4CC5CC(C4)CC3C5)c3ccc(Cl)cc3)cc2)c1 [NB-62, 1-(6-(4-((Z)-((5S,7S)-adamantan-2-ylidene)(4-chlorophenyl)methyl)phenoxy)hexyl)-3-methyl-1H-imidazol-3-ium iodide] | 0.16 | –
CC[N+](C)(CC)CCCCCCOc1ccc(C(c2ccc(OCCCCCC[N+](C)(CC)CC)cc2)=C2C3C[C@H]4C[C@@H](C3)C[C@H]2C4)cc1 [NB-115, 6-(4-(((5r,7r)-adamantan-2-ylidene)(4-((6-(diethyl(methyl)-λ^4-azaneyl)hexyl)oxy)phenyl)methyl)phenoxy)-N,N-diethyl-N-methylhexan-1-aminium diiodide] | – | PK p.o. AUC0-48 [1]: too low to measure; Blood levels after oral administration ([1]; oral, doses of FIGS. 6A-6B): very low levels; Blood levels after s.c. injection ([1]; s.c., doses of FIGS. 6A-6B): very high blood levels
C[N+]1(CCCCCCOc2ccc(C(=C3C4CC5CC(C4)CC3C5)c3ccc(OCCCCCC[N+]4(C)CCCC4)cc3)cc2)CCCC1 [NB-68, 1,1′-((((((5r,7r)-adamantan-2-ylidene)methylene)bis(4,1-phenylene))bis(oxy))bis(hexane-6,1-diyl))bis(1-methylpyrrolidin-1-ium) diiodide] | 0.05 | –
CCN(CC)CCOCCOCCOc1ccc(C(=C2C3CC4CC(C3)CC2C4)c2ccc(OCCOCCOCCN(CC)CC)cc2)cc1 [NB-53, 2,2′-(((((((((5r,7r)-adamantan-2-ylidene)methylene)bis(4,1-phenylene))bis(oxy))bis(ethane-2,1-diyl))bis(oxy))bis(ethane-2,1-diyl))bis(oxy))bis(N,N-diethylethan-1-amine)] | 0.15 | –
CCN(CC)CCCCCCOc1ccc(C(c2ccc(OCCCCCCN(CC)CC)cc2)=C2[C@H]3C[C@@H]4C[C@@H](C[C@H]2C4)C3)cc1 [NB-51, 6,6′-(((((5r,7r)-adamantan-2-ylidene)methylene)bis(4,1-phenylene))bis(oxy))bis(N,N-diethylhexan-1-amine)] | 0.21 | –
Clc1ccc(C(=C2C3CC4CC(C3)CC2C4)c2ccc(OCCCCCCN3CCCC3)cc2)cc1 [NB-55, 1-(6-(4-((-((Z)-((5S,7S)-Adamantan-2-ylidene)(4-chlorophenyl)methyl)phenoxy)hexyl)pyrrolidine] | 0.34 | –
